Literature values as cited in patent publication US20200087374A1, “INTERACTION BETWEEN C-PEPTIDES AND ELASTIN RECEPTOR, A MODEL FOR UNDERSTANDING VASCULAR DISEASE” (Resiliun B.V., priority 2017, published 2020).

Conditions: cited from earlier work

For insulin, the plasma half-life is given as roughly 4 min.
